Consider one molecule from US5789404A, “3-substituted 1-arylindole compounds” (H. Lundbeck A/S, priority 1993, dated 1998).

Amino acid sequences for entries named in this document (tags omitted).
UniProt P61169, whole entry: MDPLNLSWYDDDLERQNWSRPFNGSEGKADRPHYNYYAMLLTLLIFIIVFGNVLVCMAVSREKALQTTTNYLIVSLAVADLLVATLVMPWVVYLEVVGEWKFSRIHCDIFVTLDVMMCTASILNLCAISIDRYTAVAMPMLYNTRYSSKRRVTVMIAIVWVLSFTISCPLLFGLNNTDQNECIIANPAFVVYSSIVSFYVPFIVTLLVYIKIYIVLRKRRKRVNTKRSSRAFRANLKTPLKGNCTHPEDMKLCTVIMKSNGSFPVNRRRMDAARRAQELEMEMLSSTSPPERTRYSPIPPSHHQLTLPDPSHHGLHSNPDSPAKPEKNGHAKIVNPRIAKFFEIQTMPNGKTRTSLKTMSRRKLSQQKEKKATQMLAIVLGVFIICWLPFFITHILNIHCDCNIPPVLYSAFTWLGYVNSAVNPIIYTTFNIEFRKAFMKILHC

For the assay, the target named is dopamine D2 receptors (Rattus norvegicus, UniProt P61169). To be noted: ^3 H-spiroperidol 0.5 nM; rat corpus striatum membranes; read-out: Dopamin D2 binding ^3 H spiroperidol, IC50. The protocol: Inhibition of ^3 H-Spiroperidol Binding to Dopamine D2 Receptors in Rat Corpus Striatum in vitro
By this method the inhibition by drugs of the binding of ^3 H-spiroperidol (0.5 nM) to dopamine D2 receptors in membranes from rat corpus striatum is determined in vitro. The method is described in Hyttel & Larsen, J. Neurochem, 44, 1615-1622, 1985).

Structures can show the parent of a compound that is named as a salt.

For the molecule `CCN(CCOc1cn(-c2ccc(F)cc2)c2ccc(Cl)cc12)CCN1CCNC1=O` [Compound 4c, 1-[2-[[2-[5-Chloro-1-(4-fluorophenyl)-3-1H-indolyloxy]ethyl]ethylamino]ethyl]-2-imidazolidinone maleate], the IC50 turned out to be 18 nM.
